Assays:
[1] = tested on: dulcitol accumulation; experiment: Galactosemic rats, % lowering of dulcitol (galactitol) accumulation in vivo; set-up: species or system Sprague-Dawley rats; settings: diaphragm, 4 days
From the text: Such experiments are exemplified hereinbelow after the listing of the following general comments pertaining to these experiments:
(a) Four or more groups of six male rats, 50-70 g, Sprague-Dawley strain, were used. The first group, the control group, was fed a mixture of laboratory chow (rodent Laboratory Chow, Purina) and glucose at 20% (w/w %) concentration. […] The test compound was either admixed to the diet or administered by gavage. In experiments involving compound administration in the diet, the average dose administered was calculated from the actual food intake of the animals in each group. The concentration of galactose in the diet of the treated groups was the same as that for the untreated galactosemic group.
(b) After four days, the animals were killed by decapitation. The eyeballs were removed and punctured with a razor blade; the freed lenses were rolled gently on filter paper and weighed. The sciatic nerves were dissected as completely as possible and weighed. Both tissues when frozen can be kept up to two weeks before being analyzed for galactitol.
Only two minor reagent changes were made: (a) the rinsing mixture was an aqueous 5% (w/v) trichloroacetic acid solution and (b) the stock solution was prepared by dissolving 25 mg of dulcitol in 100 mL of an aqueous trichloroacetic acid solution. […]

[2] = target: T1, aldose reductase (Bos taurus, UniProt P16116); experiment: In vitro aldose reductase inhibition (modified Hayman and Kinoshita procedure, enzyme from bovine lens); assay type: biochemical; settings: for inhibition at 10 µM: read-out: % Inhibition IN VITRO 10^-5 M; for inhibition at 1 µM: read-out: % Inhibition IN VITRO 10^-6 M
T1 construct: preparation of the enzyme from bovine lens; from tissue; host or cells: bovine lens
From the text: In the present case the procedure of Hayman and Kinoshita was modified in that the final chromatography step was omitted in the preparation of the enzyme from bovine lens.

Row | Structure (SMILES) | % Lowering dulcitol accumulation IN VIVO, D ([1]; 14 mg/kg) | % Lowering dulcitol accumulation IN VIVO, D ([1]; 15 mg/kg) | inhibition at 10 µM [2] | inhibition at 1 µM [2]
1 | COC(=O)N(CC(=O)O)C(=O)c1c(F)ccc2c(C(F)(F)F)c(OC)ccc12 [Example 1, N-[[2-fluoro-6-methoxy-5-(trifluoromethyl)-1-naphthalenyl]carbonyl]-N-(methoxycarbonyl)glycine] | 74% | 80% |  | 
2 | COC(=O)N(CC(=O)O)C(=O)c1c(OCC(F)(F)F)ccc2c(C(F)(F)F)c(OC)ccc12 [Example 6, N-[[6-Methoxy-2-(2,2,2-trifluoroethoxy)-5-(trifluoromethyl)-1-naphthalenyl]carbonyl]-N-(methoxycarbonyl)glycine] |  |  | 100% | 94%
3 | CCOC(=O)N(CC(=O)O)C(=O)c1c(Cl)ccc2c(C(F)(F)F)c(OC)ccc12 [Example 8, N-[[2-Chloro-6-methoxy-5-(trifluoromethyl)-1-naphthalenyl]carbonyl]-N-(ethoxycarbonyl)glycine] |  |  | 97% | 94%

Source: patent publication US4820727A, “N-acyl-N-naphthoylglycines as aldose reductase inhibitors” (American Home Products Corporation, priority 1987, dated 1989)
